Earlier results, collected in patent publication US5086047A, “Novel steroids” (Roussel Uclaf, Department des Brevets, priority 1989, dated 1992).

Tested on: Aromatase
Conditions: attacks enzymatic processes other than that which leads from androgens to estrogens; cited from earlier work

CCC1(c2ccc(N)cc2)CCC(=O)NC1=O (stereo not shown) [Aminogluthetimide]
specificity to Aromatase: not being specific to Aromatase
